# Assay results as given in patent US20090264388A1, “Compounds and Methods of Treating Disorders Associated With Activation of Metachromatic Cells” (Valorisation Recherche HSCM, Limited Partnership, priority 2006, published 2009).
# System: RBL-2H3 cells
# Experiment: Antigen (DNP-BSA)-induced β-hexosaminidase release (degranulation) in IgE-sensitized RBL-2H3 cells
# Assay type: cell-based, rat
# Description: The rat basophilic cell line RBL-2H3 is an art recognized model for studying the activation of metachromatic cells through FcεRI (Oliver et al., “Signal transduction and cellular response in RBL-2H3 mast cells,” Prog. Allergy 42:185-245, 1988).
# The below experiments used the rat basophilic cells RBL-2H3 commercially available from the American Type Culture Collection (ATCC; Manassas, Va.) under accession number CRL-2256. RBL-2H3 cells were passively sensitized with mouse IgE anti-dinitrophenyl conjugated to bovine serum albumin (DNP-BSA) monoclonal antibody for 22 hours, and then stimulated with DNP-BSA (antigen) to induce cell degranulation (FIG. 1).
smiles,measurement,value
Cc1ccc(-c2nn(C(C)(C)C)c3ncnc(N)c23)cc1 [PP1],"blockade of IgE-dependent activation and degranulation of metachromatic cells, agent alone",potent blocker
